Values quoted from earlier work in patent US8598325B2, “Solid-phase microextraction coatings and methods for their preparation” (priority 2002, dated 2013).

Conditions: at 25° C.

diniconazole
Vapour Pressure: 2.96 mPa
